Key:
[1] = biological target: Delta-type opioid receptor (Mus musculus) (UniProt P32300)
[2] = biological target: Mu-type opioid receptor (Mus musculus) (UniProt P42866)

Sequences of proteins named here, by UniProt entry; tags and fusion partners are left off.
UniProt P32300, whole entry: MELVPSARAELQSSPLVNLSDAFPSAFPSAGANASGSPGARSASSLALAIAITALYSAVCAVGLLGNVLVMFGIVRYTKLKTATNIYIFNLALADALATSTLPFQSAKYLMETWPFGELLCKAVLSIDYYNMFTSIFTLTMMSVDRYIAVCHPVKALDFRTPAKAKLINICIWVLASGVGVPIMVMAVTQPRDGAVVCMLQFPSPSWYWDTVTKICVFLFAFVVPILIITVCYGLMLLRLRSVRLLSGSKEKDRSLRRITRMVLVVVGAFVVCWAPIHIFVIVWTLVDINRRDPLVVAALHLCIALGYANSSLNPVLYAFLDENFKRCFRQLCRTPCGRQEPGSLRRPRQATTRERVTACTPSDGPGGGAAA
UniProt P42866, whole entry: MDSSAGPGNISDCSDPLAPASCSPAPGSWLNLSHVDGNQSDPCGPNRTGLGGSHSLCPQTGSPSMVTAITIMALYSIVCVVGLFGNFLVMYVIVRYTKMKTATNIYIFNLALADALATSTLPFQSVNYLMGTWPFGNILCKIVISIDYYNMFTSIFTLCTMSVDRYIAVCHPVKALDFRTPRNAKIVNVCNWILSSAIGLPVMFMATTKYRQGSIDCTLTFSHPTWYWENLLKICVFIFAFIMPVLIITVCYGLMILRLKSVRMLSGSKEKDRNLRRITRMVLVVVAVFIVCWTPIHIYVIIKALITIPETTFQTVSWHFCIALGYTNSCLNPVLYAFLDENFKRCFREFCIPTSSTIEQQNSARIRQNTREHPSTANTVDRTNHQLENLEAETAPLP

## CCO[C@@]12Cc3c([nH]c4ccccc34)[C@]3(C)Oc4c(O)ccc5c4[C@@]31CCN(CC1CC1)C2C5
[1]
  Ke: 1.3 nM
[2]
  Ke: 133 nM

Source: ChEMBL document CHEMBL1130557, “Synthesis and biological evaluation of 14-alkoxymorphinans. 14.1 14-ethoxy-5-methyl substituted indolomorphinans with opioid receptor selectivity” (Bioorg Med Chem Lett, 1997)
